Reference: patent publication US9289478B2, “Formulations of tumour-associated peptides binding to human leukocyte antigen (HLA) class I or class II molecules for vaccine” (IMMATICS BIOTECHNOLOGIES GMBH, priority 2008, dated 2016)

Assay: HPLC-assay for in-use stability after reconstitution with 4.2% sodium hydrogen carbonate solution (Example 2, peptides SEQ ID NO 1-10)
Type: physicochemical
Description: Resolubilization procedure: For clinical trials the above described formulation is dissolved in 700 μl sodium hydrogen carbonate (4.2%). Remove plastic cap from one vial. Unpack and remove sodium hydrogen carbonate (4.2%) from the refrigerator at least 30 min before resolubilization to bring them up to room temperature before injection. Prepare syringe and needle for reconstitution. Use aseptic technique to take 700 μL of diluent for reconstitution of the lyophilisate. To dissolve the lyophilisate, the vial and the diluent shall be shaken vigorously for 1 minute, check whether solution is clear, otherwise continue shaking for another minute until the solution is clear. 10 to 30 minutes after GM-CSF injection, use a new syringe to administer 500 μL reconstituted formulation i.d. at the same site. Administration has to occur within 1 h after reconstitution. Dissolved lyophilisate may be stored aseptically at room temperature for up to 1 hour following reconstitution.
However, a decrease of two specific peptides, i.e. IMA-CCN-001 and IMA-RGS-001 took place (see Table 6). As these peptides contain a cysteine residue, time-depending dimerization takes place.
Identity, purity and peptide content are determined by analytical RP-HPLC chromatography. Detection wavelength was 220 nm.

## STAPPVHNV [MUC-001]
+mannitol/lutrol, 1 h after reconstitution
  in-use stability, peptide by HPLC-assay: 99.8%
+mannitol/lutrol, 2 h after reconstitution
  in-use stability, peptide by HPLC-assay: 99.6%
+mannitol/lutrol, 3 h after reconstitution
  in-use stability, peptide by HPLC-assay: 100.6%
+mannitol/lutrol, 4 h after reconstitution
  in-use stability, peptide by HPLC-assay: 100.6%
+mannitol/lutrol, 5 h after reconstitution
  in-use stability, peptide by HPLC-assay: 99.5%
+mannitol/lutrol, 6 h after reconstitution
  in-use stability, peptide by HPLC-assay: 101.3%
+mannitol/lutrol, Initial (starting value set to 100%)
  in-use stability, peptide by HPLC-assay: 100.0%
No excipients, 1 h after reconstitution
  in-use stability, peptide by HPLC-assay: 100.8%
No excipients, 2 h after reconstitution
  in-use stability, peptide by HPLC-assay: 99.2%
No excipients, 3 h after reconstitution
  in-use stability, peptide by HPLC-assay: 96.6%
No excipients, Initial (starting value set to 100%)
  in-use stability, peptide by HPLC-assay: 100.0%
